Earlier results as cited in article PMC8063737, “Mechanistic analysis of actin-binding compounds that affect the kinetics of cardiac myosin–actin interaction” (The Journal of Biological Chemistry, 2021).

Tests used:
Details in all cases: cited from earlier work
[1] = biological target: cardiac myosin β-S1 S1 (Bos taurus) (UniProt Q9BE39)
[2] = biological target: masseter myosin β-S1 S1 (Bos taurus) (UniProt Q9BE39)
[3] = biological target: cardiac myosin S1 S1 (Homo sapiens) (UniProt P12883)

actin (from UniProt P68135)
Kd [1]: 6.3 nM
Kd [2]: 7 nM
Kd [3]: 10 nM and 8 nM

Values joined by “and” are separate entries in the source; they are usually repeats but may differ in a detail not shown here. Identical values can stand only once.
